Only a part is listed here, and it is no random draw. The source made the active and inactive calls.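 The calls were made as follows: active = activation more than six SD over the plate average, tested at 20 µM; inactive = the rest.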

By UniProt entry, the sequences of proteins in these tests, tags left out.
UniProt P35414, whole entry: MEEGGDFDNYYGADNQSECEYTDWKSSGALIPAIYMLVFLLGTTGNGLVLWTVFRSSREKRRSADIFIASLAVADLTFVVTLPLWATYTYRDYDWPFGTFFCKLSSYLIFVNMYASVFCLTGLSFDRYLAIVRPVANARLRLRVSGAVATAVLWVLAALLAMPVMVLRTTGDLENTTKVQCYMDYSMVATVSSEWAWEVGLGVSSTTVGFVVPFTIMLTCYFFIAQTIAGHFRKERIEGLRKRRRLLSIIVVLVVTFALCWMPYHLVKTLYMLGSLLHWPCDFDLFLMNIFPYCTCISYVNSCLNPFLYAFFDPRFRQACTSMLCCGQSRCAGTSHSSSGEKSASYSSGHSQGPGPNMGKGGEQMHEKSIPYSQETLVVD

This assay concerns the target Apelin receptor (Homo sapiens) (UniProt P35414). Nature of the assay: agonists of human apelin receptor APJ, primary screen, CHO-K1 cells, PathHunter beta-arrestin, luminescence (AID 2520). The note with it: at 20 µM, hits give high values, 0% DMSO wells, 100% apelin. The method in brief: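 Material: engineered CHO-K1 APJ arrestin reporter cells; amount: 1000 CHO-K1 reporter cells seeded per well; incubation: compound stimulation 90 min at 25 °C, detection 60 min; signal: luminescent beta-gal fragment complementation, chemiluminescent substrate; read-out basis: APJ agonist activity; controls: DMSO-only wells as negative, 10 nM Apelin-13 as positive control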
Turning to `CCN1CCC(Nc2cccc(F)c2)CC1`, the activation is inactive: -3.13%.
Then `CN(C)c1ccc(C(=O)NCC2(N3CCCCC3)CCCCC2)cc1`, with inactive: -3.39%.
As to `O=C(NCC1(N2CCCCC2)CCCCC1)c1ccco1`, the activation was inactive: -3.07%.
Then `COc1cc(OC)cc(C(=O)NCC2(N3CCCCC3)CCCCC2)c1`, with inactive: -3.47%; and `Fc1ccccc1NC1CCN(Cc2ccccc2)CC1`, with inactive: -2.67%.
With `Cc1ccc(C(=O)NCC2(N3CCCCC3)CCCCC2)o1`, the activation is inactive: 5.41%.
Take `COc1cccc(C(=O)N(c2cc(C)cc(C)c2)C2CCN(C(=O)OC(C)(C)C)CC2)c1`: the activation is inactive: -1.61%.
Then `COc1cc(OC)cc(C(=O)NCC2(N3CCOCC3)CCCCC2)c1`, with inactive: -0.0893%; and `CCC(CO)(C(=O)OC1CN2CCC1CC2)c1ccccc1` (configuration not stated), with inactive: 4.27%; and `CN1CCC(Nc2ccc(Cl)cc2)CC1`, with inactive: 0.513%.
Consider `CCCOc1ccc(C)cc1CN(CCCl)CCCl`, for which the activation was inactive: -1.53%.
Then `CN1CCC(Nc2ccc(F)c(Cl)c2)CC1`, with inactive: -3.95%; and `CCOc1ncccc1C(=O)NCC1(N2CCOCC2)CCCCC1`, with inactive: -4.85%; and `O=C(O)C1(Nc2ccccc2)CCN(Cc2ccccc2)CC1`, with inactive: 1.07%.
On to `CC(C)(C)OC(=O)N1CCC(Nc2ccccc2)CC1`, for which the activation is inactive: -2.24%.
Regarding `CCCOc1ccc(C(=O)NCC2(N(C)C)CCCCC2)cc1`, the activation was inactive: -2.86%.
Turning to `CCOC(=O)N1CCC(Nc2ccc(C)cc2)CC1`, the activation is inactive: -4.45%.
In the case of `N/C(=N\O)c1c(N)no[n+]1[O-]`, the activation is inactive: -4.34%.
Then `O=C(OC1CN2CCC1CC2)C1c2ccccc2C=Cc2ccccc21` (configuration not stated), with inactive: -1.88%.
Regarding `CCc1cc(C(=O)NCC2(N3CCCCC3)CCCCC2)sc1C`, the activation was inactive: -1.86%.
Then `COc1cc(C(=O)NCC2(N3CCOCC3)CCCCC2)cc(OC)c1C`, with inactive: -2.9%; and `O=C(NCC1(N2CCOCC2)CCCCC1)c1cc(Br)ccc1Cl`, with inactive: -5.03%; and `COc1ccc(C(=O)NCC2(N3CCOCC3)CCCCC2)cc1OC`, with inactive: -3.93%.
Regarding `CN(C)C1(CNC(=O)c2cccc(C#N)c2)CCCCC1`, the activation was inactive: -2.36%.
With `CCCN1CCC(Nc2cc(OC)cc(OC)c2)CC1`, the activation is inactive: -0.314%.
With `c1ccc(CN2CCC(Nc3ccccc3)CC2)cc1`, the activation is inactive: -2.02%.
As to `N#Cc1ccc(C(=O)NCC2(N3CCCCC3)CCCCC2)cc1`, the activation is inactive: -4.87%.
Then `CC(C)(C)OC(=O)N1CCC(N(C(=O)c2ccccc2)c2ccc(Cl)cc2)CC1`, with inactive: -0.488%; and `O=C(NCC1(N2CCCCC2)CCCCC1)c1cccc(C(F)(F)F)c1`, with inactive: -2.28%; and `O=C(NCC1(N2CCOCC2)CCCCC1)c1cc(=O)[nH]c2ccccc12`, with inactive: 1.15%.
With `COc1cc(C(=O)NCC2(N3CCCCC3)CCCCC2)ccc1OC(F)F`, the activation was inactive: -2%.
Turning to `COc1ccc(NC2CCN(C(=O)OC(C)(C)C)CC2)cc1`, the activation is inactive: -3.33%.
`CC(C)c1ccc(C(=O)NCC2(N3CCOCC3)CCCCC2)cc1`: the activation is inactive: 3.25%.
As for `CN1CCN(CCOC(=O)C(O)(c2ccccc2)c2ccccc2)CC1`, the activation is inactive: -0.635%.
Turning to `O=C(NCC1(N2CCCCC2)CCCCC1)c1ccc(OC(F)F)cc1`, the activation is inactive: -5.72%.
Regarding `N#CC1(Nc2ccccc2)CCN(CCc2ccccc2)CC1`, the activation is inactive: -4.06%.
Then `CCN1CCC(Nc2ccc(Cl)cc2)CC1`, with inactive: 3.04%; and `O=C(NCC1(N2CCCCC2)CCCCC1)c1cccc([N+](=O)[O-])c1`, with inactive: 0.331%; and `CSc1ccc(C(=O)NCC2(N3CCOCC3)CCCCC2)cc1`, with inactive: 3.93%.
`O=C(NCC1(N2CCCCC2)CCCCC1)c1cncc(Br)c1`: the activation was inactive: -4.49%.
Take `CN1CCC(Nc2cccc(F)c2)CC1`: the activation is inactive: -3.34%.
For `CC(C)c1ccc(NC2CCN(C(=O)OC(C)(C)C)CC2)cc1`, the activation is inactive: 1.37%.
`CN(C)c1cccc(C(=O)NCC2(N3CCCCC3)CCCCC2)c1`: the activation was inactive: -2.54%.
On to `COc1ccc(CN(CCCl)CCCl)cc1Cl`, for which the activation is inactive: -3.5%.
In the case of `O=C(NCC1(N2CCOCC2)CCCCC1)c1cc(F)c(F)cc1Cl`, the activation is inactive: -1.31%.
For `COc1cc(OC)c(C(=O)NCC2(N(C)C)CCCCC2)cc1OC`, the activation is inactive: -3.06%.
Then `Cc1cc(C)cc(N(C(=O)c2ccccc2)C2CCN(C(=O)OC(C)(C)C)CC2)c1`, with inactive: 2.02%; and `O=C(NCC1(N2CCCCC2)CCCCC1)c1ccc(Cl)nc1`, with inactive: 0.896%.
For the molecule `O=C(NCC1(N2CCOCC2)CCCCC1)c1cc2ccccc2o1`, the activation was inactive: -2.03%.
Then `COc1ccc(Cl)cc1C(=O)NCC1(N2CCOCC2)CCCCC1`, with inactive: -1.73%.
Then `O=C(OC1CN2CCC1CC2)C1c2ccccc2Oc2ccccc21` (configuration not stated), with inactive: -2.82%; and `O=C(NCC1(N2CCCCC2)CCCCC1)c1ccc(Cl)s1`, with inactive: -3.69%; and `N#CC1(Nc2ccccc2)CCN(Cc2ccccc2)CC1`, with inactive: -0.724%.
Regarding `CCOC(=O)N1CCC(Nc2ccc(OC)cc2)CC1`, the activation is inactive: -1.34%.
Regarding `COc1ccc(C(=O)NCC2(N3CCCCC3)CCCCC2)c(OC)c1OC`, the activation was inactive: -4.08%.
Take `CC(C)(C)OC(=O)N1CCC(N(C(=O)c2ccccc2)c2ccc(F)cc2)CC1`: the activation is inactive: -3.84%.
Take `COc1ccc(C(=O)NCC2(N3CCCCC3)CCCCC2)cc1`: the activation was inactive: 2.77%.
As to `O=C(NCC1(N2CCCCC2)CCCCC1)c1cccs1`, the activation was inactive: -1.26%.
Consider `O=C(NCC1(N2CCCCC2)CCCCC1)c1ccc(=O)[nH]c1`, for which the activation was inactive: 1.2%.
As to `CSc1ccccc1C(=O)NCC1(N2CCCCC2)CCCCC1`, the activation was inactive: -1.83%.
Then `Cc1ccc(OCC(C)C)c(CN(CCCl)CCCl)c1`, with inactive: -2.6%; and `CCOC(=O)N1CCC(Nc2cccc(C)c2)CC1`, with inactive: -0.934%; and `CCOc1ccc(C)cc1CN(CCCl)CCCl`, with inactive: -5.94%.
Then `CCOC(=O)N1CCC(Nc2ccc(F)cc2)CC1`, with inactive: -0.399%.
In the case of `COc1ccc(NC2CCN(CCc3ccccc3)CC2)c(OC)c1`, the activation is inactive: -1.54%.
`O=C(NCC1(N2CCCCC2)CCCCC1)c1ccc(F)cc1`: the activation is inactive: -0.701%.
On to `CCCCOc1ccc(C(=O)NCC2(N3CCOCC3)CCCCC2)cc1`, for which the activation was inactive: 4.77%.

For the origin of these results see PubChem BioAssay AID2520 (Sanford-Burnham Center for Chemical Genomics, 2010).
